The values that follow are results of earlier work, collected in publication PMC12645430.

A word on the Kd: it is the equilibrium constant for the complex coming apart.

This data set has as its target Thioredoxin 1 (Escherichia coli) [thioredoxin: P0AA25].

With “DNA-directed DNA polymerase (gp5) (from UniProt P00581)”, the Kd is 5 nM.
